For one experiment, the target named is human BACE1 (Homo sapiens, UniProt P56817). To be noted: read-out: hBACE1 IC50; mean of three experiments ± SEM.
The target of another experiment is Aβ42 (Homo sapiens, UniProt P05067). The experiment in a line: In cellulo Aβ42 aggregation inhibition, Thioflavin S fluorescence in E. coli overexpressing Aβ42. Format: cell-based, Escherichia coli. The note with it: at 10 µM; mean of three experiments ± SEM.
The target in a further experiment is tau (Homo sapiens, UniProt P10636). The experiment in a line: In cellulo tau aggregation inhibition, Thioflavin S fluorescence in E. coli overexpressing tau. Format: cell-based, Escherichia coli. The note with it: at 10 µM; mean of three experiments ± SEM.

By UniProt entry, the sequences of proteins in these tests, tags left out. Residues count along the entry.
UniProt P56817, 46-501 limits assumed: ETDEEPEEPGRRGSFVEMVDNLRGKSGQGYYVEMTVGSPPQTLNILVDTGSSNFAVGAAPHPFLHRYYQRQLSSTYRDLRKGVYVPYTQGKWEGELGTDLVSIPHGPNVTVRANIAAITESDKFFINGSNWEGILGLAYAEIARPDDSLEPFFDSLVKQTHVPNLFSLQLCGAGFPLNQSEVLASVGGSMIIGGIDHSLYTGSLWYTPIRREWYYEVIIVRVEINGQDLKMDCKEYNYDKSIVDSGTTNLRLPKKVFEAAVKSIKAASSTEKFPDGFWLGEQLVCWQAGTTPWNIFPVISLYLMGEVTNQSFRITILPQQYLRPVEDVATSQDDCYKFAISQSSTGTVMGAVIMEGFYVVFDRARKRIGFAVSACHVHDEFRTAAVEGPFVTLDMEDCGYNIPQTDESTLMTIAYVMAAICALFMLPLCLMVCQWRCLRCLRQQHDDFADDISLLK
UniProt P05067, 672-713 limits assumed: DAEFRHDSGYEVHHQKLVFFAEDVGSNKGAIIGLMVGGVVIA
UniProt P10636, 1-441 isoform 8: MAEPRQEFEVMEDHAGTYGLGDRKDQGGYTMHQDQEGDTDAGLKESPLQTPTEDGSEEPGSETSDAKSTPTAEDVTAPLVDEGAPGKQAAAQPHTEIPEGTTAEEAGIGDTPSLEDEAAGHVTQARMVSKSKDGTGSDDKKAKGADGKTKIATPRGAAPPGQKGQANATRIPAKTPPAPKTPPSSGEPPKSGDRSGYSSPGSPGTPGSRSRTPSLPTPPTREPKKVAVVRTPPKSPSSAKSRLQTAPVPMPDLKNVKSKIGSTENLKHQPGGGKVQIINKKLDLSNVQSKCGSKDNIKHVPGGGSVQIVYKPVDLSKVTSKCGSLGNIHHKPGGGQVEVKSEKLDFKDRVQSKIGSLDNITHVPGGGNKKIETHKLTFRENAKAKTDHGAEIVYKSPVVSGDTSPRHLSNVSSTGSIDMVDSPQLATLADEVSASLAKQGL

Molecules are shown by their SMILES.

Broadly, the IC50 is the concentration at which inhibition is half-maximal. In the case of `O=S(=O)(c1ccccc1)n1ccc2c(N3CCN(CCNC4CCN(Cc5ccccc5)CC4)CC3)cccc21`, the IC50 on human BACE1 worked out at 8.31 µM. Further, on Aβ42, the “In cellulo Aβ42 inhibition %” value stood at 32.0 ± 3.7%. Moreover, the “In cellulo tau inhibition %” value on tau was 34.9 ± 5.6%.
For `CN(CCN1CCN(c2cccc3c2ccn3S(=O)(=O)c2ccccc2)CC1)Cc1ccccc1` the same measures were 19.5 µM, 18.1 ± 2.7% and 43.8 ± 5.6%.
On to `CN(CCCN1CCN(c2cccc3c2ccn3Cc2ccccc2)CC1)Cc1ccccc1`, for which the IC50 at human BACE1 is 37.5 µM. For the same molecule, on Aβ42, the “In cellulo Aβ42 inhibition %” value is 29.9 ± 3.4%. Moreover, the “In cellulo tau inhibition %” value on tau is 21.2 ± 4.9%.

(Values after article PMC7594877, “Multidirectional in vitro and in cellulo studies as a tool for identification of multi-target-directed ligands aiming at symptoms and causes of Alzheimer’s disease” (Journal of Enzyme Inhibition and Medicinal Chemistry, 2020).)
